Experimental data taken from patent US11534504B2, “Compositions and methods for stabilizing coelenterazine and analogs and derivatives thereof” (Promega Corporation, priority 2018, dated 2022).

Test: Analytical HPLC of Pluronic F-127 formulated substrates reconstituted in water (Examples 34-36)
Format: physicochemical
Conditions: Example 34; JRW-0238, 100 μM
Experimental: 2.5 mgs of Pluronic® F-127 (Sigma Aldrich) were massed out into […] snap-top Eppendorf tubes. The polymer was heated to 70° C. in a water bath until melted, becoming a clear solution. A 174 mM stock solution of the coelenterazine analog, JRW-0238, was prepared in EtOH. 5 μL of this stock was added to the melted polymer and pipetted to mix. Two separate conditions were prepared: Condition 1—After the addition of the substrate, the substrate/polymer solution was dried under high vacuum for 30 minutes. Condition 2—After addition of substrate, the substrate/polymer solution was further diluted with 45 μL of water, frozen, and lyophilized overnight.
Samples from both conditions 1 and 2 were reconstituted in water, diluted to 100 μM, and analyzed for chemical integrity via analytical HPLC (FIG. 54).
This formulation was also prepared for the coelenterazine analog, furimazine. 2.5 mgs of Pluronic® F-127(Sigma Aldrich) were massed out into 1.5 mL, snap-top Eppendorf tubes. The polymer was heated to 70° C. in a water bath until melted. A 10 mM stock solution of furimazine was prepared in EtOH. 5 μL of this stock was then added to the melted polymer and pipetted to mix. […]
The samples in both condition 1 and 2 were reconstituted in water, diluted to 100 μM, and analyzed for substrate integrity via analytical HPLC (FIG. 55). […]

Compound: O=c1c(Cc2ccco2)nc2c(Cc3ccccc3)[nH]c(-c3cccc(O)c3)cn1-2 [JRW-0238, 8-benzyl-2-(furan-2-ylmethyl)-6-(3-hydroxyphenyl)imidazo[1,2-a]pyrazin-3(7H)-one]
- Area Percent, peak at retention time 4.357-4.366 min (main peak): 98.429%
